Data reported in patent publication US20230108492A1 (ONCOIMMUNE, published 2023).

Biological target: control Fc
Experiment: Biacore (SPR): control Fc in place of CD24Fc, Siglec-10Fc as analyte. The value is printed under the KD line inside the plot; no curve is drawn for the control
From the text: To measure the interaction between CD24Fc and Siglec 10, we immobilized CD24Fc onto a CHIP and used Biacore to measure the binding of different concentrations of Siglec-10Fc. […] The interaction between CD24Fc and HMGB1 was confirmed by pull down experiments using CD24Fc-bound protein G beads followed by Western blot with either anti-IgG or anti-HMGB1. […] To determine whether CD24Fc is an agonist of Siglec G, the mouse counterpart of human Siglec 10, we stimulated CD24−/− spleen cells with CD24Fc, control Fc or vehicle (PBS) control for 30 minutes. Siglec G was then immunoprecipitated and probed with anti-phospho-tyrosine or anti-SHP-1.

Kd: 16.2 µM
B1: Siglec-10Fc (Fc fusion, human, UniProt Q96LC7 17-546, looked up)
chain: MDGRFWIRVQESVMVPEGLCISVPCSFSYPRQDWTGSTPAYGYWFKAVTETTKGAPVATNHQSREVEMSTRGRFQLTGDPAKGNCSLVIRDAQMQDESQYFFRVERGSYVRYNFMNDGFFLKVTALTQKPDVYIPETLEPGQPVTVICVFNWAFEECPPPSFSWTGAALSSQGTKPTTSHFSVLSFTPRPQDHNTDLTCHVDFSRKGVSAQRTVRLRVAYAPRDLVISISRDNTPALEPQPQGNVPYLEAQKGQFLRLLCAADSQPPATLSWVLQNRVLSSSHPWGPRPLGLELPGVKAGDSGRYTCRAENRLGSQQRALDLSVQYPPENLRVMVSQANRTVLENLGNGTSLPVLEGQSLCLVCVTHSSPPARLSWTQRGQVLSPSQPSDPGVLELPRVQVEHEGEFTCHARHPLGSQHVSLSLSVHYSPKLLGPSCSWEAEGLHCSCSSQASPAPSLRWWLGEELLEGNSSQDSFEVTPSSAGPWANSSLSLHGGLSSGLRLRCEAWNVHGAQSGSILQLPDKKGLIST
notes: Used as the analyte in Biacore at different concentrations; also called human Siglec 10; not shown: Fc part of Siglec-10Fc
